The values that follow come from ChEMBL document CHEMBL5728057, “3-((hetero-)aryl)-8-amino-2-oxo-1,3-diaza-spiro-[4.5]-decane derivatives” (2020).

Sequences of proteins named here, by UniProt entry; tags and fusion partners are left off.
UniProt P35372, whole entry, looked up: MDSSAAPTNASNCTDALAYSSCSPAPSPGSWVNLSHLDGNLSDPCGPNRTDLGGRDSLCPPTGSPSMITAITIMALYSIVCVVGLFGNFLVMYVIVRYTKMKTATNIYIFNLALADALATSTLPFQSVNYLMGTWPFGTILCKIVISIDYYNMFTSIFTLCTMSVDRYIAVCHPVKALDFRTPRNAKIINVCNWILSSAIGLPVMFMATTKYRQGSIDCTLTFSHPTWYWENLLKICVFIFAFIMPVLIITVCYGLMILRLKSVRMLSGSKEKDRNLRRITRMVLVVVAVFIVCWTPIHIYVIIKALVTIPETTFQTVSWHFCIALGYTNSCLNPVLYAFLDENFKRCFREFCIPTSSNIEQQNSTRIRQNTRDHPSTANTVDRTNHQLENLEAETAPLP

The target of this assay is Mu-type opioid receptor (Homo sapiens, UniProt P35372). The assay can be described thus: Human Mu-Opioid Peptide (hMOP) Receptor Binding Assay: The hMOP receptor binding assay was performed as homogeneous SPA-assay (scintillation proximity assay) using the assay buffer 50 mM TRIS-HCl (pH 7.4) supplemented with […] bovine serum albumin (Sigma-Aldrich Co. St. Louis. Mo.). The final assay volume (250 l/well) included 1 nM of [N-allyl-2.3-3H]naloxone as ligand (PerkinElmer Life Sc.

The term Ki denotes the equilibrium dissociation constant of an inhibitor or competing ligand from its target. Low readings indicate tighter binding, high ones weaker binding. Take `CN(C)[C@]1(c2ccccc2)CC[C@]2(CC1)CN(c1ccc(S(C)(=O)=O)cc1)C(=O)N2CC1CCC1`: the Ki is 330 nM.

On to `CN[C@]1(c2cccc(F)c2)CC[C@]2(CC1)CN(c1cnc(C(F)(F)F)nc1)C(=O)N2CC1CC1`, for which the affinity, expressed as Ki, was 1440 nM.

The compound `Cc1ncc(N2C[C@]3(CC[C@](c4ccccc4)(N(C)C)CC3)NC2=O)c(NCC(N)=O)n1` displayed a Ki of 6830 nM.

Regarding `CN(C)[C@]1(c2ccccc2)CC[C@]2(CC1)CN(c1ccc(C#N)nc1)C(=O)N2CC1(O)CCC1`, the Ki came out at 49 nM.

`CN(C)[C@]1(c2ccccc2)CC[C@]2(CC1)CN(c1ccc3[nH]c(N4CCOCC4)nc3c1)C(=O)N2` had a Ki of 925 nM.

With `COc1ccc(N2C[C@]3(CC[C@](c4ccccc4)(N(C)C)CC3)N(CC3CCC3)C2=O)c(OC)c1`, the Ki was 43.5 nM.

`CN(C)[C@]1(c2ccccc2)CC[C@]2(CC1)CN(c1cnc(N3CCN(CCO)CC3)nc1)C(=O)N2`: the Ki worked out at 2000 nM.

As for `CC(C)CN1C(=O)N(c2cnc(C#N)nc2)C[C@]12CC[C@](c1ccccc1)(N(C)C)CC2`, the Ki was determined as 145 nM.

`CN(CCO)c1ncc2cc(N3C[C@]4(CC[C@](c5ccccc5)(N(C)C)CC4)NC3=O)ccc2n1` returned a Ki of 1720 nM.

In turn, `CN(C)[C@]1(c2ccccc2)CC[C@]2(CC1)CN(c1cnc(N3CCOCC3)nc1)C(=O)N2CC1(O)CCC1` had a Ki of 18 nM.

`CN(C)[C@]1(c2ccccc2)CC[C@]2(CC1)CN(c1ccc(C(F)(F)F)nc1)C(=O)N2CC1CCC1` displayed a Ki of 107 nM.

Compound `CN(C)[C@]1(c2cccs2)CC[C@]2(CC1)CN(c1cnc(N3CCOCC3)nc1)C(=O)N2` displayed a Ki of 3360 nM.

The compound `CN(C)[C@]1(c2ccccc2)CC[C@]2(CC1)CN(c1ccc(S(C)(=O)=O)cc1F)C(=O)N2` registered a Ki of 3570 nM.

`CN(C)[C@]1(c2ccccc2)CC[C@]2(CC1)CN(c1ccc(S(C)(=O)=O)cc1F)C(=O)N2CC1CC1`: the Ki stood at 115 nM.

As to `CN1CCN(c2ccc(N3C[C@]4(CC[C@](c5ccccc5)(N(C)C)CC4)NC3=O)cn2)CC1`, the Ki is 695 nM.

`CN(C)[C@]1(c2cccc(F)c2)CC[C@]2(CC1)CN(c1cnc(C(=O)NCC3CCC3)nc1)C(=O)N2CC1CCC1` gave a Ki of 136 nM.

Regarding `CNC(=O)c1ccc(N2C[C@]3(CC[C@](c4ccccc4)(N(C)C)CC3)N(CC3CCC3)C2=O)cc1`, the affinity, expressed as Ki, was 30 nM.

`Cc1ccccc1N1C[C@]2(CC[C@](c3ccccc3)(N(C)C)CC2)NC1=O` displayed a Ki of 2210 nM.

In the case of `CN(C)[C@]1(c2ccccc2)CC[C@]2(CC1)CN(c1ccc(C#N)cc1)C(=O)N2CC1(O)CCC1`, the Ki was found to be 65 nM.

`COc1ncc(N2C[C@]3(CC[C@](c4ccccc4)(N(C)C)CC3)N(CC3CCC3)C2=O)cn1` had a Ki of 35.3 nM.

`CCN(C)[C@]1(c2ccccc2)CC[C@]2(CC1)CN(c1cnc(C#N)nc1)C(=O)N2CC1CCC1` returned a Ki of 1050 nM.

`CN1CCN(c2ncc(N3C[C@]4(CC[C@](c5ccccc5)(N(C)C)CC4)NC3=O)cn2)CC1`: affinity was put at a Ki of 1220 nM.

`CN(C)[C@]1(c2ccccc2)CC[C@]2(CC1)CN(c1ccc(C(F)(F)F)cc1S(C)(=O)=O)C(=O)N2CC1CCC1` registered an inhibition constant Ki of 22 nM.

On to `Cc1cn2cc(N3C[C@]4(CC[C@](c5ccccc5)(N(C)C)CC4)N(CC4CCC4)C3=O)ncc2n1`, for which the Ki is 24 nM.

As for `CN(C)[C@]1(c2ccccc2)CC[C@]2(CC1)CN(c1cnc(N3CCOCC3)c(F)c1)C(=O)N2`, the inhibition constant (Ki) was 4490 nM.

As for `CN[C@]1(c2cccc(F)c2)CC[C@]2(CC1)CN(c1cnc(C(F)(F)F)nc1)C(=O)N2CC1CCC1`, affinity was put at a Ki of 455 nM.

As to `CN(C)[C@]1(c2ccccc2)CC[C@]2(CC1)CN(c1ccc(C#N)nc1)C(=O)N2CC1(C#N)CCC1`, the Ki came to 38 nM.

`CN(C)[C@]1(c2ccccc2)CC[C@]2(CC1)CN(c1ccc(-c3cccc4c3CC(=O)N4)cn1)C(=O)N2`: the Ki turned out to be 735 nM.

As for `CN(C)[C@]1(c2ccccc2)CC[C@]2(CC1)CN(c1cnc(N3CCCCC3)nc1)C(=O)N2`, affinity was put at a Ki of 3610 nM.

Regarding `CN[C@]1(c2ccccc2)CC[C@]2(CC1)CN(c1ccc(S(C)(=O)=O)cc1)C(=O)N2CC1CCC1`, the Ki turned out to be 59 nM.
